## AlphaSeq binding of Ab-91 heavy chain variants to a spike HR2 peptide

Values reported by Engelhart et al. 2022, doi:10.1038/s41597-022-01779-4 (FLAb copy).

Target: peptide PDVDLGDISGINAS, taken from heptad repeat 2 (HR2) of SARS-CoV-2 spike.

Ab-91 is the parent antibody, in scFv form: VL, then a 15-residue (Gly4Ser)3 linker, then VH. The light chain is unchanged in all variants.
VL: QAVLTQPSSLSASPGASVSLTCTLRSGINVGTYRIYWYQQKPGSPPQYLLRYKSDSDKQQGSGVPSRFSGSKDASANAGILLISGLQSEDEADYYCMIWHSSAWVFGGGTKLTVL
VH: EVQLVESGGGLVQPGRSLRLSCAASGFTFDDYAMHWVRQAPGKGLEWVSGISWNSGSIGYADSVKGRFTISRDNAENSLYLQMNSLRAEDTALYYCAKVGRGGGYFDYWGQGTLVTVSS

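Phage display of a naive human antibody library on the peptide gave the parent. In library AAYL51, one, two or three CDR residues were substituted; doubles and triples were drawn at random. AlphaSeq pools MATa yeast showing the antibodies with MATalpha yeast showing the peptide. The frequency of each diploid, read from paired DNA barcodes, reflects how well the two displayed proteins bind. A regression on co-assayed BCL2-family reference pairs converts the normalised counts of each replicate to an apparent Kd. The assay was run in three technical replicates.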

The whole VH of each variant is written out. Affinities are written as log10 Kd with Kd in nM; a lower number is a better binder. The mean shown is taken over the replicates in which the pair was detected. A pair that was not seen in any replicate is written "nd"; this usually means weak binding, but a binder can also be missed. As a blank, each scFv also met three strains without target: over library AAYL51, 21% of these pairings were detected, typically at 4.54 and seldom below 3.26. The control count says in how many pairings with the empty strains this scFv gave a signal.

mean log10 Kd (nM)	detected	control signals	VH
4.22	2 of 3	1 of 9	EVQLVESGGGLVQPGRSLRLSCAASGFTFDDYAMHWVRQAPGKGLEWVSGISWNSGSIGYAYSLKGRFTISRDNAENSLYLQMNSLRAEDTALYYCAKVGQGGGYFDYWGQGTLVTVSS
nd	0 of 3	0 of 9	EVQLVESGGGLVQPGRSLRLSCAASGFTFDDYAMSWVRQAPGKGLEWVSRISWNSGSIGYADSQKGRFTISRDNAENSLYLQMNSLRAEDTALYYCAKVGRGGGYFDYWGQGTLVTVSS
5.68	2 of 3	6 of 9	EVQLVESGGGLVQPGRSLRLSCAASGNTFDDYAMHWVRQAPGKGLEWVSGIFWNSGSIGYASSVKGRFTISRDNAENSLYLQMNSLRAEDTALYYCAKVGRGGGYFDYWGQGTLVTVSS
5.40	2 of 3	7 of 9	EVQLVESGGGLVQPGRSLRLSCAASGFTFDDYAMHWVRQAPGKGLEWVSGISWNSGSIGYADSDKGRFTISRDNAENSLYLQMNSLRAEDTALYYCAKVGYGLGYFDYWGQGTLVTVSS
nd	0 of 3	0 of 9	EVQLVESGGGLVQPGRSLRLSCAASGFTFDDYAMHWVRQAPGKGLEWVSGISWNSGSIGWADSVKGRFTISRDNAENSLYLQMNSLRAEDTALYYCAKPGCGGGYFDYWGQGTLVTVSS
4.63	1 of 3	1 of 9	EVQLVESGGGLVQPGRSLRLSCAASGFTFDDMAMHWVRQAPGKGLEWVSGISWASGSIAYADSVKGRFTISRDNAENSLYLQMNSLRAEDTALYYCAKVGRGGGYFDYWGQGTLVTVSS
nd	0 of 3	1 of 9	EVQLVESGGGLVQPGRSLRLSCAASGFTFDDYAMHWVRQAPGKGLEWVSGISWFSGSIGYADYVKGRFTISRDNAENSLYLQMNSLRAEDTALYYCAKVGRGGGYADYWGQGTLVTVSS
nd	0 of 3	0 of 9	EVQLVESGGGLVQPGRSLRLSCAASGFTFDDYAMHWVRQAPGKGLEWVSGISWMSGSGGSADSVKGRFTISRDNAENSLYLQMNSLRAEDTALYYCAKVGRGGGYFDYWGQGTLVTVSS
6.13	1 of 3	4 of 9	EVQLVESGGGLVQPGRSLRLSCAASGVTFDWYAMHWVRQAPGKGLEWVSGISWSSGSIGYADSVKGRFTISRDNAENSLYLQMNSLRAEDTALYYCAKVGRGGGYFDYWGQGTLVTVSS
nd	0 of 3	2 of 9	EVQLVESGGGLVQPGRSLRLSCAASGFTFDDYAMHWVRQAPGKGLEWVSGISWNSGSKGYVDSVKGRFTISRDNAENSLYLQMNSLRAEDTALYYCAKVGRGTGYFDYWGQGTLVTVSS
6.31	1 of 3	2 of 9	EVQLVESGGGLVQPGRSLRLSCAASGFTFDDYAMHWVRQAPGKGLEWVSGISWNSGSIGLADSVKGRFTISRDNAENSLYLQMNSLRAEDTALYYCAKVTRGGGYFDYWGQGTLVTVSS
nd	0 of 3	7 of 9	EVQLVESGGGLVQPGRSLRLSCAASGFTFDDYASHWVRQAPGKGLEWVSGISWNSGSIGYADVVKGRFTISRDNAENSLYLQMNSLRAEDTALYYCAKVGRGGGYFDYWGQGTLVTVSS
nd	0 of 3	0 of 9	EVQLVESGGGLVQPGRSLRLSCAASGFTFDDYVMHWVRQAPGKGLEWVSGISWNSYSIGEADSVKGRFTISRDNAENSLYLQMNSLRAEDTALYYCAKVGRGGGYFDYWGQGTLVTVSS
nd	0 of 3	1 of 9	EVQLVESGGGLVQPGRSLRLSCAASGFTFDDYAMHWVRQAPGKGLEWVSYASWNSGSIGYADSVKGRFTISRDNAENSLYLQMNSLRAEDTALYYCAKVGRTGGYFDYWGQGTLVTVSS
5.01	2 of 3	6 of 9	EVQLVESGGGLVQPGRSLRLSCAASGFTFDDYYMSWVRQAPGKGLEWVSGISWNSGSIGYADSVKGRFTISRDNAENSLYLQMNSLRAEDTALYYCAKVYRGGGYFDYWGQGTLVTVSS
nd	0 of 3	1 of 9	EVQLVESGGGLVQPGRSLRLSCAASGFTFDDYAMHWVRQAPGKGLEWVSGISWNSGSIGYADMDKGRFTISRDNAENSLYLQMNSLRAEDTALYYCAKVGWGGGYFDYWGQGTLVTVSS
nd	0 of 3	0 of 9	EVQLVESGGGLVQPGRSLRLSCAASGFTFDDYAMHWVRQAPGKGLEWVSGLSWNSGHINYADSVKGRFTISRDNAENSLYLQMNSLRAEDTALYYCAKVGRGGGYFDYWGQGTLVTVSS
5.14	1 of 3	1 of 9	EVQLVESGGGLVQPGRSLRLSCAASQFTFDIYAMHWVRQAPGKGLEWVSGISWNSGSIGYADSVKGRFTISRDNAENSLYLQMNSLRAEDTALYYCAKVGRGGQYFDYWGQGTLVTVSS
1.15	3 of 3	1 of 9	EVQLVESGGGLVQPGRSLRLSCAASGFTFRDYAMHWVRQAPGKGLEWVSGISWNSGSIGYAGSVKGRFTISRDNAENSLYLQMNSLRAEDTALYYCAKTGRGGGYFDYWGQGTLVTVSS
1.27	3 of 3	1 of 9	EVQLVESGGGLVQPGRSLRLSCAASGFTFEDYAMHWVRQAPGKGLEWVSGISWNSGSIGYADSAKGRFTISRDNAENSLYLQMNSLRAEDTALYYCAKVGRGGGYFDYWGQGTLVTVSS
4.25	1 of 3	1 of 9	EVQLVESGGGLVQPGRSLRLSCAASGFTFDDYAYHWVRQAPGKGLEWVSGISWLVGSIGYADSVKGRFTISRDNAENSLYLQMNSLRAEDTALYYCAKVGRGGGYFDYWGQGTLVTVSS
4.77	1 of 3	1 of 9	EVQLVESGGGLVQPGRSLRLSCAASGFTFDDYKMHWVRQAPGKGLEWVSGISSNSGSIGYADSVKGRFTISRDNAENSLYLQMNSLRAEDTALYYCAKVGRGGGGFDYWGQGTLVTVSS
0.44	3 of 3	3 of 9	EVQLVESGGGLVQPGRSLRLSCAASGFQFDDYAMHWVRQAPGKGLEWVSGISWNSGSIGYADSVKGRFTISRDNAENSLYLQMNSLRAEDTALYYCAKIGRGGGYFDIWGQGTLVTVSS
3.55	1 of 3	1 of 9	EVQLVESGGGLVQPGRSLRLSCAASGFTFDDYPMHWVRQAPGKGLEWVSGISWNSGSIGYADAVKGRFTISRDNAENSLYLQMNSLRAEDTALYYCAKVGRGGGYFSYWGQGTLVTVSS

The opening 3 entries, copied out:

VH,mean log10 Kd (nM),detected,control signals
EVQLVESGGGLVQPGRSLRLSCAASGFTFDDYAMHWVRQAPGKGLEWVSGISWNSGSIGYAYSLKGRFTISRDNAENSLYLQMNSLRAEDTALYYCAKVGQGGGYFDYWGQGTLVTVSS,4.22,2 of 3,1 of 9
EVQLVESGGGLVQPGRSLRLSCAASGFTFDDYAMSWVRQAPGKGLEWVSRISWNSGSIGYADSQKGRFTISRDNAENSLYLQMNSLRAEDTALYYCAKVGRGGGYFDYWGQGTLVTVSS,nd,0 of 3,0 of 9
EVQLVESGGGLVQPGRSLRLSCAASGNTFDDYAMHWVRQAPGKGLEWVSGIFWNSGSIGYASSVKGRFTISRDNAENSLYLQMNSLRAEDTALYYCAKVGRGGGYFDYWGQGTLVTVSS,5.68,2 of 3,6 of 9